This assay addresses protein kinase C (PKC), endogenous in COS-7 (monkey (endogenous in COS-7)) (UniProt P17252). Put plainly: co-IP.

In turn, “Rac1 (endogenous, COS-7) (from UniProt P63000 1-192) (natural protein)” showed a fold increase of Rac1 co-precipitated with PKC, H/R against normoxia of 4 fold.

For the origin of these results see publication PMC3392026.
